Earlier results in patent publication US7449114B2, “Halogenated solvent remediation” (SRP Technologies, Inc., priority 2000, dated 2008).

Settings: surfactant concentration 1%; cited from earlier work

Substance: Nonylphenol ethoxylate
- PCE Solubilized: 1,300 mg/l
